# Yeast mating assay 1: variants of the scFv Ab-14

Data: MIT Lincoln Laboratory AlphaSeq set, Engelhart et al. 2022, doi:10.1038/s41597-022-01779-4, as distributed in FLAb.

Binding partner: SARS-CoV-2 spike HR2 peptide, sequence PDVDLGDISGINAS.

The variants keep the heavy chain, the linker and the frameworks of Ab-14 (scFv order VH, a (GGGGS)3 linker, VL).
VH: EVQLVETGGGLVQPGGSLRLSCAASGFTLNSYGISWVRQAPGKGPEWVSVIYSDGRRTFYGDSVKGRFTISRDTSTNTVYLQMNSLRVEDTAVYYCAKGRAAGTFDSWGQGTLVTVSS
VL: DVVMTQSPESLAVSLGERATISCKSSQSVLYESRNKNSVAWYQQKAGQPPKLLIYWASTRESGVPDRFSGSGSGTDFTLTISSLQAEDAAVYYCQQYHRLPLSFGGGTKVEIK

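The parent was found by panning a naive human phage display library on the peptide. AAYL50 was designed without a model: most single CDR substitutions and a random sample of double and triple ones. Affinity was read by AlphaSeq, a pooled yeast mating assay with surface-displayed partners. Pairs that bind mate more often; barcode pairs of the diploids are counted by sequencing. The ratio of observed to expected reads was calibrated, replicate by replicate, on BCL2-family standards whose Kd was known from biolayer interferometry. The assay was run in three technical replicates.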

Sequences are complete VL domains. All variants listed here change S26 of the VL, counted from its first residue. Kd is apparent (estimated from mating counts) and averaged on the log scale over replicates with a signal. Smaller is tighter. A pair that was not seen in any replicate is written "no signal"; this usually means weak binding, but a binder can also be missed. Order: sorted from the lowest average up, undetected variants last. Three control strains display no target. For library AAYL50, 18% of the pairings with them gave a signal, with a median of 15 µM and one signal in twenty below 970 nM, so weak values seen in few replicates may be background.

Variant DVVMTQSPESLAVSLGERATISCHSRQSVLYESRNKNSVAWYQQKAGQPPKLLIYWASTRESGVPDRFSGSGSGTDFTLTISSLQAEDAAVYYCQQYHHLPLSFGGGTKVEIK showed 8.7 nM (3 of 3 replicates). With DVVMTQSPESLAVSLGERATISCKSNQSVLYESRNKNSVAWYQQKAGQPPKLLIYWASTRESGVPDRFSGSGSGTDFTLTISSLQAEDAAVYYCQQYHRLPLSFGGGTKVEIK the result was 12 nM (3 of 3 replicates). Variant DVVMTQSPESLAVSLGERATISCKSDQSVLYTSRNKNSVAWYQQKAGQPPKLLIYWASTRESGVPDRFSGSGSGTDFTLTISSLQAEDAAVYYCQQYHRLPLLFGGGTKVEIK showed 34 nM (3 of 3 replicates). With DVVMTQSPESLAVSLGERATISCKSIQSVLYESRNKNSVAWYQQKAGQPPKLLIYWASTRSSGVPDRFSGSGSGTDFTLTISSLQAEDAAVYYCQQYHRLMLSFGGGTKVEIK the result was 34 nM (3 of 3 replicates). With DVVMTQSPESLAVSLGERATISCKSGQSVWYQSRNKNSVAWYQQKAGQPPKLLIYWASTRESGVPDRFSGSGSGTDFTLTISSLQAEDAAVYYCQQYHRLPLSFGGGTKVEIK the result was 60 nM (3 of 3 replicates). Variant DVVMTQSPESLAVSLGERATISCKSEQSVLYMSRNKNSVAWYQQKAGQPPKLLIYWASTRESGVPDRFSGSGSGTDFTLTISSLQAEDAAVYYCQQYHRLPLSFGGGTKVEIK showed 83 nM (3 of 3 replicates).

Variant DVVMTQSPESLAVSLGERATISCKSRQSVLGESRNKNSVAWYQQKAGQPPKLLIYWASTRESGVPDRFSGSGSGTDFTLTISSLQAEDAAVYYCQQYHRLPLSFGGGTKVEIK showed 250 nM (3 of 3 replicates). For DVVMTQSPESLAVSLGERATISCKSMQSVLYESRNKNSVAWYQQKAGQPPKLLIYWAKTRESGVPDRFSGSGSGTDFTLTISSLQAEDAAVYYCQQYHRLPLSFGGGTKVEIK, the assay gave 260 nM (3 of 3 replicates). With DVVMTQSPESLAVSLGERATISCKSPQSVLYESRNKNSVAWYQQKAGQPPKLLIYWASSREFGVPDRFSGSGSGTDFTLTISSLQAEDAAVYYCQQYHRLPLSFGGGTKVEIK the result was 280 nM (3 of 3 replicates). With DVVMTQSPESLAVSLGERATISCKSVQSVLYEKRNKNSVAWYQQKAGQPPKLLIYWAETRESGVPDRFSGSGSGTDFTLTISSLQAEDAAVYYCQQYHRLPLSFGGGTKVEIK the result was 310 nM (3 of 3 replicates). Variant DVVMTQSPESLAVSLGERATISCKSQQSVLYESRNKNSVAWYQQKAGQPPKLLIYWISTRESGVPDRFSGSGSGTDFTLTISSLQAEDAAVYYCQQYHRIPLSFGGGTKVEIK showed 830 nM (1 of 3 replicates). Variant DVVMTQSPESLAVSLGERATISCKSTVSVLYESRNKNSWAWYQQKAGQPPKLLIYWASTRESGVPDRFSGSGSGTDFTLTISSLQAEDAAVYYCQQYHRLPLSFGGGTKVEIK showed 5.8 µM (1 of 3 replicates).

For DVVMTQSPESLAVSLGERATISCKSRQSVLYESRNKNSVAWYQQKAGQPPKLLIYWASTRISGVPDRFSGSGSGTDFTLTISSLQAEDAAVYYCDQYHRLPLSFGGGTKVEIK, the assay gave 30 µM (3 of 3 replicates). Variant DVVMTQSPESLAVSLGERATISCKSNQSVLYESRNKNSVQWYQQKAGQPPKLLIYWASTRESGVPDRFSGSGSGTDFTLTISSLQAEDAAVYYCQQYHRLPCSFGGGTKVEIK showed 34 µM (1 of 3 replicates). With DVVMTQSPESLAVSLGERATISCKSNQSVLYESRNKNSVCWYQQKAGQPPKLLIYWASTREVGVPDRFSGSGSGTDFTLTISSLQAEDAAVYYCQQYHRLPLSFGGGTKVEIK the result was 37 µM (1 of 3 replicates). For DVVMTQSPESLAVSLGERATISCKSHQSVLYESRNKMSVAWYQQKAGQPPKLLIYWASTAESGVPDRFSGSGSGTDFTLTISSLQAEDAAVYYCQQYHRLPLSFGGGTKVEIK, the assay gave 84 µM (2 of 3 replicates). With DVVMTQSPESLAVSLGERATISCKSNQSVLYESRNKNSVKWYQQKAGQPPKLLIYWAPTRESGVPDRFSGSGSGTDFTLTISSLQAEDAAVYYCQQYHRLPLSFGGGTKVEIK the result was no signal (0 of 3 replicates). With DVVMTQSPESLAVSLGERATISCKSVQSMLYESRNKNSVAWYQQKAGQPPKLLIYWASTRESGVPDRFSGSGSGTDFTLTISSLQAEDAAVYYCQQYHRLNLSFGGGTKVEIK the result was no signal (0 of 3 replicates).

For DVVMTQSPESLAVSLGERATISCKSLQSVLYESRNKNSVAWYQQKAGQPPKLLIYWASTRESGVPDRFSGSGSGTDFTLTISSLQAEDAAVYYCQQYARAPLSFGGGTKVEIK, the assay gave no signal (0 of 3 replicates). Variant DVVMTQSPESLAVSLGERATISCKSLQSVLYEQRNKNTVAWYQQKAGQPPKLLIYWASTRESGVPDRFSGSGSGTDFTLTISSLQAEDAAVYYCQQYHRLPLSFGGGTKVEIK gave no signal (0 of 3 replicates). Variant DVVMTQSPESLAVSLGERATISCKSVQSVLYESRNKNVVAWYQQKAGQPPKLLIYWASVRESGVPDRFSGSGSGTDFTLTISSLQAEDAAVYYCQQYHRLPLSFGGGTKVEIK showed no signal (0 of 3 replicates). For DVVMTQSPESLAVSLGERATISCKSQQSVLYESRNKNSVAWYQQKAGQPPKLLIYWASTRESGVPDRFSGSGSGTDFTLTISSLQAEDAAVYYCQQYHCLPLMFGGGTKVEIK, the assay gave no signal (0 of 3 replicates). Variant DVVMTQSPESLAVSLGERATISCKSHQSVLYESRNKNSVAWYQQKAGQPPKLLIYWASTRESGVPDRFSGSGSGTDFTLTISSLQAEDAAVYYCQQYHRFPLSFGGGTKVEIK gave no signal (0 of 3 replicates). Variant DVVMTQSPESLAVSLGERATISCKSNQSVLYESRWKISVAWYQQKAGQPPKLLIYWASTRESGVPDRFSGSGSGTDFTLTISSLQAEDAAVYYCQQYHRLPLSFGGGTKVEIK showed no signal (0 of 3 replicates).

With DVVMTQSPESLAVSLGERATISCVSHQSVLYESRNKNSVAWYQQKAGQPPKLLIYWASRRESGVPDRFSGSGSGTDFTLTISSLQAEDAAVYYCQQYHRLPLSFGGGTKVEIK the result was no signal (0 of 3 replicates). For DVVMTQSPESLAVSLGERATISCKSDQSVLYESRNKNSVAWYQQKAGQPPKLLIYWALTRESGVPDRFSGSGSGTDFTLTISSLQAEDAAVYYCQQYKRLPLSFGGGTKVEIK, the assay gave no signal (0 of 3 replicates).

Excerpt, the final 4 entries:

Variant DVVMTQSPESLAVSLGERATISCKSHQSVLYESRNKNSVAWYQQKAGQPPKLLIYWASTRESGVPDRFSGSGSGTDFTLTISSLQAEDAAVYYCQQYHRFPLSFGGGTKVEIK gave no signal (0 of 3 replicates).
Variant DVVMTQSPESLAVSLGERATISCKSNQSVLYESRWKISVAWYQQKAGQPPKLLIYWASTRESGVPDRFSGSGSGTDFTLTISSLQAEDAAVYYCQQYHRLPLSFGGGTKVEIK gave no signal (0 of 3 replicates).
Variant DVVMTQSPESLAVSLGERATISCVSHQSVLYESRNKNSVAWYQQKAGQPPKLLIYWASRRESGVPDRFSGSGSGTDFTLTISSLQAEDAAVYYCQQYHRLPLSFGGGTKVEIK gave no signal (0 of 3 replicates).
Variant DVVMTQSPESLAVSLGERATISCKSDQSVLYESRNKNSVAWYQQKAGQPPKLLIYWALTRESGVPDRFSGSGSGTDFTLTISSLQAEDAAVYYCQQYKRLPLSFGGGTKVEIK gave no signal (0 of 3 replicates).